Biological target: Tumor Necrosis Factor alpha (TNF-alpha) (UniProt P01375)
Test: cell-based or functional assay

anti-TNF-alpha antibody produced in Aurantiochytrium sp.
inhibition of TNF-alpha-induced killing of L929 cells (CellTiter-Glo viability), EC50: 0.13 µg/mL

From patent US20170268015A1
